# Only a part is listed here, and it is no random draw. Calls of active or inactive are those of the source.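 How the source made its calls: active means inhibition of yeast growth at or above a set limit in either of two repeat tests at 20 µM; inactive means the rest.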
# Assay: growth inhibitors of tim10-1 mutant yeast, confirmation, single concentration, luminescence, S. cerevisiae (AID 463213);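 further: tim10-1 mutant grown at permissive 25 °C to find synthetic lethal compounds; 0% = DMSO yeast wells and 100% = medium wells without yeast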
# Conditions: S. cerevisiae tim10-1 ts strain growth, BacTiter-Glo, 24 h; at 20 µM; hits give high values
row,SMILES,inhibition
1,CC(=O)NC(SC(=S)N(CC(C)C)CC(C)C)C(Cl)(Cl)Cl (configuration not stated),active: 35.3%
2,O=[N+]([O-])c1cc([N+](=O)[O-])c(CCNc2ccccc2)c([N+](=O)[O-])c1,active: 70.8%
3,Cc1c2non([O-])c-2c(C)[n+](=O)[n+]1[O-],active: 44.8%
4,Cc1ccc2nc3c(c(C)c2c1)CC(C(Cl)Cl)S3 (configuration not stated),inactive: 21%
5,O=[N+]([O-])c1cc([N+](=O)[O-])c(-c2ccn[nH]2)s1,active: 82.4%
6,Cc1ccc(NCCc2c([N+](=O)[O-])cc([N+](=O)[O-])cc2[N+](=O)[O-])cc1,active: 66.4%
7,CN(C)C(=O)c1cc([N+](=O)[O-])cc2c1-c1c(cc([N+](=O)[O-])cc1[N+](=O)[O-])C2=O,active: 73.2%

# Source: PubChem BioAssay AID463213 (Sanford-Burnham Center for Chemical Genomics, 2010)
